Measurements as given in ChEMBL document CHEMBL4680096, “Structural Optimization of 4-Chlorobenzoylpiperidine Derivatives for the Development of Potent, Reversible, and Selective Monoacylglycerol Lipase (MAGL) Inhibitors” (J Med Chem, 2016).

Organism: Homo sapiens
Assay: Selectivity index, ratio of IC50 for FAAH (unknown origin) to IC50 for human MAGL

Ratio IC50: 3
SMILES: O=C(CCCCCc1ccc(-c2ccccc2)cc1)OCc1ccc2c(c1)OCO2
